Each structure is given as a SMILES string.

This passage reports IC50 results from patent US5985885A, “Quinazoline-4-amino-2-(piperidine-1-yl-4-substituted) derivatives having antihypertensive activity, a method for their preparation and their pharmaceutical use” (priority 1996, dated 1999).

The assay addresses alpha1A + alpha1C adrenergic receptor (human prostate). Description: [3H]-prazosin binding in human prostate. To be noted: alpha1A + alpha1C subtype, pH 7.5, 30 min, 25° C., read-out: Inhibition of the binding of [3H]-prazosin IC50.

In general, IC50 refers to the concentration that inhibits the measured activity by half. Take `COc1cc2nc(N3CCN(C(=O)c4ccco4)CC3)nc(N)c2cc1OC` [Prazosin, reference compound]: the IC50 was 2.3 nM.
